# Laboratory results published in PubChem BioAssay AID1529 (NMMLSC, 2009).
# Chains of the proteins cited; added tags and fusions are not shown. Lines headed by an entry give the natural chain unless they say otherwise; changes in a name come on top.
# UniProt Q99759: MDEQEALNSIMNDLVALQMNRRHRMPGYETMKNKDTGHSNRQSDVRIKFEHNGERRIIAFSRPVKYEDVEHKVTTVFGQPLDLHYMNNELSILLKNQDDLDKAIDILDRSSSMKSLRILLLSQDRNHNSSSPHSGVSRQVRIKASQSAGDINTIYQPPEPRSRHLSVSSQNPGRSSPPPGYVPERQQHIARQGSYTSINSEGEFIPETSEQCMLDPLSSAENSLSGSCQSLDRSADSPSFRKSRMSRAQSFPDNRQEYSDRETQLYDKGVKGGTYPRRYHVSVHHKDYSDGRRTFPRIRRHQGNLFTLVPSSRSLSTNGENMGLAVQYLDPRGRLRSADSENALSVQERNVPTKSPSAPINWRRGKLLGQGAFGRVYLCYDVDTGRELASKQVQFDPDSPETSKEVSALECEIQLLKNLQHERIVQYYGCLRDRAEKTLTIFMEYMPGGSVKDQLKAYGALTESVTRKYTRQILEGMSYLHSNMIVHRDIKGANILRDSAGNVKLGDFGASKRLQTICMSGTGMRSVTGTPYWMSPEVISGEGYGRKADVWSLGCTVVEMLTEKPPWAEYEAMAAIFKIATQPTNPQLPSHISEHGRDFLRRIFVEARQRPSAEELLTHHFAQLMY
# This is a selection; strong and weak results do not stand in their true shares. Activity calls are given as the source filed them.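 How the source made its calls: active means binding response more than 3 SD above or below the average of its plate-row segment, actives on both sides; inconclusive means wells at one plate position flagged as instrument error; inactive means the rest.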
# Target: Mitogen-activated protein kinase kinase kinase 3 (Homo sapiens) (UniProt Q99759)
# Assay: compounds raising or lowering MEK5 association with MEKK3 PB1 – biochemical, wildtype MEKK3, multiplex bead flow cytometry, Alexa488-MEK5, primary screen (AID 1529);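 further: Alexa488 bead fluorescence after subtracting the streptavidin-only scavenger bead signal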
# Conditions: bead-based flow cytometry, Alexa488-MEK5 binding to MEKK3; at 10 µM; actives lie on both sides; 0 = blocked by unlabeled MEK5, 100 = vehicle
row,SMILES,binding response (% of control)
1,Nc1cc(N)c2nonc2c1[N+](=O)[O-],inactive: 114%
2,CC(C)CC(=O)NC(Sc1ccc(Cl)cc1)C(Cl)(Cl)Cl (stereo not given),inactive: 90%
3,Oc1ccccc1CNc1ccccn1,inactive: 100%
4,O=C(NC(Sc1ccncn1)C(Cl)(Cl)Cl)c1ccccc1 (stereo not given),inactive: 100%
5,Cc1c2non([O-])c-2c(C)[n+](=O)[n+]1[O-],inactive: 97%
6,COc1ccccc1OP(=O)(Nc1ccc(C)cn1)Oc1ccccc1OC,inactive: 113%
7,Cc1ccc(OP(=O)(Nc2nccs2)Oc2ccc(C)cc2)cc1,inactive: 96%
8,CN1CCCC(OC(=O)C(c2ccccc2)c2ccccc2)C1 (stereo not given),inactive: 85%
9,Clc1ccc(Cl)c(NC2=NCC(CBr)S2)c1 (stereo not given),inactive: 105%
10,NC(=O)c1cc([N+](=O)[O-])cc([N+](=O)[O-])c1N,inactive: 91%
11,CCN(N=Nc1nonc1N)c1nonc1N,inactive: 95%
12,Nc1cccc2ccc([As](=O)(O)O)cc12,inactive: 96%
13,O=[N+]([O-])c1cc([N+](=O)[O-])c(CCN2CCOCC2)c([N+](=O)[O-])c1,inactive: 101%
14,Cc1cc(SC(NC(=O)c2ccc(F)cc2)C(Cl)(Cl)Cl)ncn1 (stereo not given),inactive: 97%
15,CCOP(=O)(Nc1ccccc1)OCC,inactive: 100%
16,Cc1ccc(NP(=O)(Oc2ccccc2F)Oc2ccccc2F)nc1,inactive: 109%
17,CN(C(=O)Cc1ccc(Cl)c(Cl)c1)[C@H]1CCCC[C@@H]1N1CCCC1,inactive: 107%
18,CC(=O)Nc1ccc([As](=O)(O)O)cc1,inactive: 98%
19,O=C(O)c1ccccc1[As](=O)(O)O,inactive: 102%
20,O=P(Nc1nc2ccc(Cl)cc2s1)(c1ccccc1)c1ccccc1,inactive: 95%
21,O=[N+]([O-])c1cccc(NC2=NCC(CBr)S2)c1 (stereo not given),inactive: 96%
22,O=C(O)CNc1ccc([As](=O)(O)O)cc1,inactive: 97%
23,CC(C)(C)C(=O)NC(Sc1ccncn1)C(Cl)(Cl)Cl (stereo not given),inactive: 92%
24,O=[N+]([O-])c1ncn(CCn2ncnc2[N+](=O)[O-])n1,inactive: 104%
25,O=C(Nc1cc([As](=O)(O)O)ccc1O)c1ccccc1,inactive: 88%
26,CC(C)=N/N=C(\N)N[N+](=O)[O-],inactive: 97%
27,CN(C)C(=O)OCCc1n(C)cc[n+]1C,inactive: 92%

row,SMILES,binding response (% of control)
1,CC1CCN(C(=O)Oc2c(Cl)cc(Cl)c3cccnc23)CC1,inactive: 93%
2,Nc1ccc([As](=O)(O)c2ccc(N)cc2)cc1,inactive: 104%
3,C[N+]1=C2C=CC=CC=C2SC12C([N+](=O)[O-])=CC([N+](=O)[O-])=C[C-]2[N+](=O)[O-] (stereo not given),inactive: 81%
4,CCN(/C(=N/P(=O)(N1CCOCC1)N1CCOCC1)N1CCOCC1)c1ccc(OC)cc1,inactive: 117%
5,O=[N+]([O-])c1cccc2n[nH]nc12,inactive: 102%
6,CC(=O)N1C2C3N(C(C)=O)C1C1N(C(C)=O)C(C(N1C(C)=O)N3C(C)=O)N2C(C)=O,inactive: 103%
7,Cc1ccc(NP(=O)(Oc2ccccc2)Oc2ccccc2)nc1,inactive: 65%
8,CCc1nc2c(n1)c1c(non1O)c1c2no[n+]1[O-],inactive: 101%
9,O=[N+]([O-])c1cc([N+](=O)[O-])c(CCNc2ccccc2)c([N+](=O)[O-])c1,inactive: 100%
10,COc1ccc(C2=NCC(CBr)S2)cc1 (stereo not given),inactive: 94%
11,c1nnnn1CCn1cnnn1,inactive: 107%
12,CC(C)C(=O)NC(Sc1ccccc1)C(Cl)(Cl)Cl (stereo not given),inactive: 88%
13,O=P(Nc1nccs1)(c1ccccc1)c1ccccc1,inactive: 106%
14,C(Cc1nn[nH]n1)Cc1nn[nH]n1,inactive: 99%
15,Nc1ccc([As](=O)(O)c2ccc([N+](=O)[O-])cc2)cc1,inactive: 99%
16,O=C(OC1CN2CCC1CC2)c1cccc(Cl)c1 (stereo not given),inactive: 106%
17,O=[N+]([O-])c1ccc(O)c(/C=N/Nc2ccc([N+](=O)[O-])cc2[N+](=O)[O-])c1,inactive: 104%
18,CC(=O)NC(SC(=S)N(C)C)C(Cl)(Cl)Cl (stereo not given),inactive: 94%
19,O=[N+]([O-])c1ncn(CCn2cnc([N+](=O)[O-])n2)n1,inactive: 100%
20,O=[As](O)(c1ccccc1)c1ccc(O)cc1,inactive: 102%
21,O=P(Nc1nc2ccccc2s1)(c1ccccc1)c1ccccc1,inactive: 103%
22,C[C@H]1OP(=O)(Oc2ccccc2)[C@H](O)[C@H](O)[C@H]1N=[N+]=[N-] (stereo not given in full),inactive: 98%
23,O=P(Nc1ccccn1)(c1ccc(Br)cc1)c1ccc(Br)cc1,inactive: 102%
24,CN(C)C1(CNC(=O)c2ccc(Cl)c(S(N)(=O)=O)c2)CCCCC1,inactive: 103%
25,Cc1ccccc1OP(=O)(Nc1ccccn1)Oc1ccccc1C,inactive: 88%
26,O=c1c2cc([N+](=O)[O-])ccc2[nH]c2c([N+](=O)[O-])cc([N+](=O)[O-])cc12,inactive: 96%
27,CN(C)C(=O)Oc1noc2ccccc12,inactive: 97%

row,SMILES,binding response (% of control)
1,COC(=O)c1cc2c(s1)N=C(c1ccccc1)N(C)P2(=O)N1CCOCC1 (stereo not given),inactive: 106%
2,CC(=O)NC(SC(=S)N(CC(C)C)CC(C)C)C(Cl)(Cl)Cl (stereo not given),inactive: 105%
3,Cc1ccc(OP(=O)(Nc2ccccn2)Oc2ccc(C)cc2)cc1,inactive: 80%
4,O=C(OC1CN2CCC1CC2)c1ccccc1 (stereo not given),inactive: 97%
5,CCC(=O)N1C2C3N(C(=O)CC)C1C1N(C(=O)CC)C(C(N1C(=O)CC)N3C(=O)CC)N2C(=O)CC,inactive: 104%
6,CCNC(=S)/N=C(\N)N[N+](=O)[O-],inactive: 105%
7,O=C(NC1CCS(=O)(=O)C1)NP(=S)(Oc1ccccc1)Oc1ccccc1 (stereo not given),inactive: 108%
8,c1ccc(-c2nn[nH]n2)c(-c2nn[nH]n2)c1,inactive: 89%
9,Cc1ccc(NP(=O)(Oc2cccc(C)c2)Oc2cccc(C)c2)nc1,inactive: 84%
10,CCOC(=O)NC(Sc1ccccc1)C(Cl)(Cl)Cl (stereo not given),inactive: 102%
11,CC(=O)Nc1ccc([As](=O)(O)O)c(O)c1,inactive: 91%
12,CC(=O)Nc1ccc(Oc2c([N+](=O)[O-])cc([N+](=O)[O-])cc2[N+](=O)[O-])cc1,inactive: 110%
13,CC(=O)c1ccc(N2CC2c2ccncc2)cc1 (stereo not given),inactive: 97%
14,C[C@H]1OP(=O)(Oc2ccccc2)C[C@@H]2O[C@@H]21 (stereo not given in full),inactive: 105%
15,C[C@@H]1C=CCP(=O)(Oc2ccccc2)O1 (stereo not given in full),inactive: 103%
16,CC(C)(C)C(=O)NC(Sc1ccccc1)C(Cl)(Cl)Cl (stereo not given),inactive: 88%
17,O=P1(Nc2nc3ccc(Cl)cc3s2)COc2ccccc2O1 (stereo not given),inactive: 102%
18,CCOc1ccc(C2=NCC(CBr)S2)cc1 (stereo not given),inactive: 94%
19,COc1cc(C2NCCC3(OCCO3)C2(C)C)cc(OC)c1OC (stereo not given),inactive: 102%
20,CCOP(=O)(Nc1cccc2ccccc12)OCC,inactive: 94%
21,CCCOP(=S)(Nc1nc(N)cc(=O)[nH]1)OCCC,inactive: 82%
22,Cc1ccc(NCCc2c([N+](=O)[O-])cc([N+](=O)[O-])cc2[N+](=O)[O-])cc1,inactive: 94%
23,Nc1cccc2c([As](=O)(O)O)cccc12,inactive: 91%
24,Cc1cccc(OCC(=O)OC2CN3CCC2CC3)c1 (stereo not given),inactive: 83%
25,O=[As](O)(c1cccc(O)c1)c1cccc(O)c1,inactive: 90%
26,O=[As](O)(O)c1cccnc1,inactive: 106%
27,COc1cc(C(=O)NCC2(N3CCOCC3)CCCCC2)cc(Cl)c1OC(C)C,inactive: 115%

row,SMILES,binding response (% of control)
1,CS(=O)(=O)c1ccc(Cl)c(NC(=O)COC(=O)C(O)(c2ccccc2)c2ccccc2)c1,inactive: 102%
2,O=C(OC1CN2CCC1CC2)c1ccc(Cl)cc1 (stereo not given),inactive: 104%
3,O=[N+]([O-])c1ccc2c(c1)nnn2O,inactive: 105%
4,CN(C(=O)Cc1ccc(Cl)c(Cl)c1)[C@H]1CC[C@@]2(CCCO2)C[C@@H]1N1CCCC1,inactive: 99%
5,CCOP1(=S)c2c(C)nn(CCC#N)c2N=C(c2ccc(F)cc2)N1C (stereo not given),inactive: 102%
6,CN(C(=O)Cc1ccccc1)[C@@H]1CC[C@]2(CCCO2)C[C@H]1N1CCCC1,inactive: 104%
7,NC(=O)Nc1ccc([As](=O)(O)O)cc1,inactive: 88%
8,Nc1ccccc1[As](=O)(O)c1ccccc1,inactive: 108%
9,O=C(O)COc1ccc([As](=O)(O)O)cc1[N+](=O)[O-],inactive: 97%
10,CS(=O)(=O)c1cc([N+](=O)[O-])c2no[n+]([O-])c2c1,inactive: 88%
11,CCOP1(=S)c2c(C)nn(CCC#N)c2N=C(c2ccccc2F)N1C (stereo not given),inactive: 108%
12,O=P(Nc1nccs1)(Oc1ccccc1)Oc1ccccc1,inactive: 106%
13,O=P(Nc1nccs1)(c1ccccc1)c1nc2ccccc2s1 (stereo not given),inactive: 99%
14,Cc1ccc(OCC(=O)OC2CN3CCC2CC3)cc1 (stereo not given),inactive: 96%
15,O=[As](O)(c1cccs1)c1cccs1,inactive: 102%
16,O=P1(Nc2ccc(Br)cn2)COc2ccccc2OC1,inactive: 101%
17,Nc1cccc([As](=O)(O)c2ccccc2)c1,inactive: 106%
18,O=P1(Nc2ncccn2)COc2ccccc2OC1,inactive: 93%
19,O=C(/C=C/c1ccccc1)OC1CN2CCC1CC2 (stereo not given),inactive: 105%
20,CN(C)C1(CNC(=O)c2ccc(S(C)(=O)=O)cc2)CCCCC1,inactive: 85%
21,CC1CCC(C(C)C)C(OP(=O)(Nc2ccccn2)c2ccccc2)C1 (stereo not given),inactive: 95%
22,Cc1ccc(C(=O)OC2CN3CCC2CC3)cc1 (stereo not given),inactive: 103%
23,O=[As](O)(c1ccccc1Br)c1ccccc1Br,inactive: 94%
24,CC1(CBr)Cn2c(nc3ccccc3c2=O)S1 (stereo not given),inactive: 109%
